Biological target: heterodimeric LIF receptor (murine gp130 and LIFRα) on transiently transfected Ba/F3 cells (mouse) (UniProt Q00560)
Experiment: cell-based or functional assay

Substance: murine LIF, unlabelled (from UniProt P09056 24-203) (ligand)
- drop of proliferation rate of M1 cells (MTT assay, three days, 50 ng/ml mLIF combined with EPO variants): 30 to 55%

From EP2226633A1
